## Measured affinities in a library of Ab-14 light chain variants

The target is the same throughout: PDVDLGDISGINAS, from the HR2 region of SARS-CoV-2 spike.

The variants keep the heavy chain, the linker and the frameworks of Ab-14 (scFv order VH, the linker GGGGSGGGGSGGGGS, VL).
VH: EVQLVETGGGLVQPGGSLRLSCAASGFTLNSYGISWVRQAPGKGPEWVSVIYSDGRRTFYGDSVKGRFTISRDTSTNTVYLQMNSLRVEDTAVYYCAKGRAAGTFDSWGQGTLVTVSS
VL: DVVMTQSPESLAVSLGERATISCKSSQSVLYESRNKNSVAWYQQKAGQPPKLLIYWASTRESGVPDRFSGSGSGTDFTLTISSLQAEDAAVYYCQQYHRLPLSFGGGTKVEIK

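Phage display of a naive human antibody library on the peptide gave the parent. Designed CDR sequences, proposed from the first random library and measured here. Group labels follow the data file (Ctrl: baseline library sampled from a position-specific scoring matrix, with some repeated check sequences; Rand: our label for a block that the file lists under HC and that is probably the random mutants of the ten best first-round binders; En: ensemble of fine-tuned language models; GP: Gaussian process model; HC: hill climbing; Gen: genetic algorithm; Gibbs: Gibbs sampling; a sequence that several methods proposed may carry one label only). In AlphaSeq, yeast of one mating type display the scFv and yeast of the other type display the target. Binding brings cells together so that they mate, and sequencing counts the barcode pairs among the diploids. Each replicate has its own calibration line, from reference interactions of the BCL2 family. There are six technical replicates.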

Variants are written as CDR1, CDR2 and CDR3 of the light chain (limits as in the source). Parent: KSSQSVLYESRNKNSVA, WASTRES, QQYHRLPLS.
Values are log10 of the apparent Kd in nM; lower means stronger binding.
Averages over replicates are reported, and they cover detected replicates only.
"nd" means that the variant was in the library but no mating with the target was seen in any replicate; the authors take this as a sign of poor binding, and no number exists.
The parent sequence was in this pool as ten entries: three were never detected, three once, and four in most replicates, with averages from 0.34 to 2.37.
A sequence measured in both rounds can read differently, since the two assays cover different ranges.
The authors averaged sequences with at least three values out of six and counted those with two or fewer as poor binders.
Empty control strains, which show no peptide, gave a signal in 4% of pairings with all light chain designs; the median was 2.64 and 95% of these signals were weaker than 1.59. No background was subtracted.

mean log10 Kd (nM) | seen in | CDR-L1 | CDR-L2 | CDR-L3 | group
0.20 | 6 of 6 | KLSQSVLYESRNKNSVA | NASTRES | QDYHRLPLY | GP_Gen
0.01 | 6 of 6 | KSSQSVLYESTDKNSVA | DASQREA | QQYHRLPLS | Ctrl
1.33 | 6 of 6 | KLYYNTGTESFRKDNIA | DNDLREE | QQYDRLPLS | En_Gen
0.05 | 6 of 6 | KLQQSVLYESRNKNSVA | NASTRYS | QQYHRLPLS | GP_Gen
1.14 | 2 of 6 | MISEMMHMIGAKKNSIA | DLVLRAN | QQYHRLPLS | En_Gen
2.80 | 1 of 6 | KSSQSVLYELRDKNSVA | WASTRES | QQYHRLPLS | Ctrl
2.38 | 1 of 6 | MSSQSVLYESCEKNSVA | WASQRES | QQYARLPLS | Ctrl
-0.41 | 6 of 6 | KVSQSWLYESRNKNSVA | NASTRMS | QQYHRLPLS | GP_Gen
-0.07 | 6 of 6 | KSSQSVLYESRNFNSVA | DASTRES | QQYHRLPLS | GP_Gen
1.50 | 3 of 6 | MVSQLMLWGLHAKNSIA | EAQTRLN | QQYDRLPLE | En_Gen
0.76 | 6 of 6 | TISGLILMPTRNKNSVA | NTSTRYS | QQYHRLPLS | En_HC
-0.39 | 6 of 6 | KVSQSNLYESRNKNNVA | DASTRES | QQYHRLPLS | GP_Gen
-0.12 | 6 of 6 | KLGGVTEYEMRNKNSVA | QMTTREK | QQYHRLPLS | En_HC
2.72 | 6 of 6 | MISNVMNTLTREGNNVA | DLAEREN | QQYFRLPLS | En_Gen
nd | 0 of 6 | KSSQSVLYESRNKNSVA | WASTRES | QQAHRLPLS | Ctrl
0.72 | 6 of 6 | NFSQMVLTGSTLKNSVA | HAMTREE | QQYHRLPLI | En_HC
0.03 | 6 of 6 | KFSQSVLYESRNKNSVA | NASTRES | QQYHQLPLS | GP_HC
0.83 | 6 of 6 | KLSQSMLYELRNLNSVA | HASQRMS | QQYHRLPLS | GP_Gibbs
0.62 | 6 of 6 | IISQVDDYESRNKNSIA | DQQTRGS | QQYDRLPLS | En_HC
0.51 | 6 of 6 | KIGMTLNSLMHKKNNVA | DLVERAN | QQYFRLPLS | En_Gen
0.36 | 6 of 6 | RMNKFMSPITEAKNSVA | GAEHLAQ | QSYHRLPLS | En_Gibbs
1.70 | 6 of 6 | HITMGMYVHGRHHSSIA | QAETREK | QQYDRLPLM | En_Gen
0.26 | 6 of 6 | AVSFSHLYESRNKNSVA | EASTREQ | QQYHRLPLS | GP_Gibbs
1.06 | 5 of 6 | KQSQSVLYESVNSNSVA | DASTRES | QQYHRLPLS | GP_HC
2.50 | 3 of 6 | HISQSVGMTQFNKNSVA | ENSTREN | QQYDRLPLS | En_HC
1.49 | 6 of 6 | KWSWSWLLESRWDNSVA | NASLRES | QQYHRLPLS | GP_Gibbs
0.46 | 6 of 6 | KVSQGMWYESRMKNSVA | DASQRES | QQYHRLPLQ | GP_Gibbs
0.22 | 6 of 6 | KSLQSWLYESRNKNSVA | HASEREQ | QQYHRLPLS | GP_HC
nd | 0 of 6 | KSSGSVLSPSHNKNSVA | RASTRES | QQFHRLPLA | Ctrl
-0.41 | 6 of 6 | KLEQSQLYESRNKNAVA | NASTRES | QQYHRLPLS | GP_Gen
0.08 | 6 of 6 | KASQSVLYESDNKNSVA | WASTRES | QQYHRLPLS | Ctrl
2.14 | 6 of 6 | KLSQMVGGESRNKSSLA | DNSTREY | QQYHRLPLS | En_HC
0.69 | 6 of 6 | KLSQSVLYESRNKNSVA | GASTRES | QLYHRLPLS | GP_Gen
nd | 0 of 6 | KLSLFYRVETIQKNSVA | DNSTRES | QDYDRLPLS | En_HC
0.45 | 6 of 6 | MIGGAMKSQSAHRNSVA | DMTNREN | QQYDRLPLS | En_Gen
1.77 | 5 of 6 | KIQWYPLENRGTIQAVA | EASTAYN | QQYMHLPLS | En_Gibbs
-0.35 | 6 of 6 | KLSQSDLYESRNKNSVA | GASTRES | QQYHRLPLS | GP_Gen
2.04 | 6 of 6 | KLRQSTLYESRNKNEVA | WASTRES | QQYHRLPLS | Rand
1.84 | 5 of 6 | TISQSFMMENQFKNSVA | QAQTRES | QCYDRLPLS | En_HC
2.56 | 5 of 6 | KVSEFMRGLLMRKDSIA | DNNTRSN | QQYDRLPLS | En_Gen
0.13 | 6 of 6 | KVQQSELYESRNKNSVA | NASLRES | QQYHRLPLS | GP_Gen
0.91 | 6 of 6 | KMSQEVPLESRNDNSVA | MASTRMM | QQYHRLPLS | GP_Gibbs
-0.19 | 6 of 6 | KVSQLNLYESRNANNVA | NASLRES | QQYHRLPLS | GP_Gibbs
0.13 | 6 of 6 | KVSQSVLYESRNKNSVA | NASTRED | QQYHRLPLS | GP_Gen
1.83 | 2 of 6 | KSSQSVLYESRNQLSVA | EASTRES | QGYHRLPLS | Ctrl
0.12 | 6 of 6 | KLSMITNHMQQSKNNVA | EMVTREN | QQYERLPLS | En_Gen
-0.25 | 6 of 6 | KLSQSVLYESRQKNSVA | NASTREV | QQYHRLPLS | GP_Gen
1.42 | 6 of 6 | HLGLATMLESSVRNSVA | NNSTRED | QQYDRLPLS | En_Gen
0.48 | 6 of 6 | GILSQMDGPTEYKENIA | NGNERLP | QQYQRLPLT | En_Gibbs
0.09 | 6 of 6 | KGSQSVLYESRNKNSVA | DASTRES | QQYHRLPLS | Ctrl
2.26 | 4 of 6 | KSSQSVLYEGRNKNSVA | WASTRES | QQTHRLPLS | Ctrl
-0.06 | 3 of 6 | RLMNWGPDQIQHANSIA | DRDEVDS | QQYAHLPLS | En_Gibbs
1.28 | 4 of 6 | KSSQSPLYESRNKNSVA | WASTRES | QQYHRLPLS | Ctrl
2.35 | 3 of 6 | KSSQSVLYESRNKNSVA | DASTRES | QQYDRLPLS | Ctrl
2.08 | 4 of 6 | MISQLYNMGSFAINSVA | QAEERNE | QQYDRLPLI | En_Gen
2.02 | 2 of 6 | TISQLMLYESRNKNNVA | GTSTREN | QCYHRLPLS | En_HC
0.08 | 6 of 6 | HAYQSGLYEQRNKNSVA | SASMRES | QQYHRLPLS | GP_Gibbs
nd | 0 of 6 | NSSQSVRYESRNKNSVA | WASTREL | QTYARLPLS | Ctrl

The opening 8 entries, copied out:

CDR-L1 | CDR-L2 | CDR-L3 | group | mean log10 Kd (nM) | seen in
KLSQSVLYESRNKNSVA | NASTRES | QDYHRLPLY | GP_Gen | 0.20 | 6 of 6
KSSQSVLYESTDKNSVA | DASQREA | QQYHRLPLS | Ctrl | 0.01 | 6 of 6
KLYYNTGTESFRKDNIA | DNDLREE | QQYDRLPLS | En_Gen | 1.33 | 6 of 6
KLQQSVLYESRNKNSVA | NASTRYS | QQYHRLPLS | GP_Gen | 0.05 | 6 of 6
MISEMMHMIGAKKNSIA | DLVLRAN | QQYHRLPLS | En_Gen | 1.14 | 2 of 6
KSSQSVLYELRDKNSVA | WASTRES | QQYHRLPLS | Ctrl | 2.80 | 1 of 6
MSSQSVLYESCEKNSVA | WASQRES | QQYARLPLS | Ctrl | 2.38 | 1 of 6
KVSQSWLYESRNKNSVA | NASTRMS | QQYHRLPLS | GP_Gen | -0.41 | 6 of 6

The measurements come from Li et al. 2023 (doi:10.1038/s41467-023-39022-2) through the FLAb antibody collection.